We go through three compounds from ChEMBL document CHEMBL3259737, “Lead optimization studies of cinnamic amide EP2 antagonists” (J Med Chem, 2014).

Chains of the proteins cited; added tags and fusions are not shown. Lines headed by an entry give the natural chain unless they say otherwise; changes in a name come on top.
UniProt P43116: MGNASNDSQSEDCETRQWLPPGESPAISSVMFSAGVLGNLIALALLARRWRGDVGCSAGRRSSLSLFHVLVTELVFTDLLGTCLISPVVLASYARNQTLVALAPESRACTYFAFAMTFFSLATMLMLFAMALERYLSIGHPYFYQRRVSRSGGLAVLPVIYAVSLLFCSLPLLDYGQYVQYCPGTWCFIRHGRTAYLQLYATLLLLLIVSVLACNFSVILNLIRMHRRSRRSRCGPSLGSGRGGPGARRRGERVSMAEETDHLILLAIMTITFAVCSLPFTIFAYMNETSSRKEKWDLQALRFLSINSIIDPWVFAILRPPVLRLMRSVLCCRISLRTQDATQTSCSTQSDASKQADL

For one data set, the system named is C6. The data set can be described thus: Cytotoxicity against rat C6 cells assessed as cell viability.
Data set [1] can be described thus: Metabolic stability in mouse liver microsomes assessed as compound remaining at 1 uM after 60 mins. On the technique in general: Liver microsomes are a subcellular fraction often used to study metabolism.
The nature of data set [2]: Ratio of drug level in brain to plasma in C57BL/6 mouse at 5 mg/kg, ip measured after 1 to 2 hrs.
Data set [3] in a line: Ratio of drug level in brain to plasma in C57BL/6 mouse at 10 mg/kg, po measured after 1 to 2 hrs.
Data set [4] can be described thus: in vivo. The conditions noted are these: C57BL/6, mouse, ip, 5 mg/kg.
Data set [5] in a line: in vivo. The following applies: C57BL/6, mouse, po, 10 mg/kg.
For data set [6], the target named is Prostaglandin E2 receptor EP2 subtype (Homo sapiens) (UniProt P43116). Kind of data set: Competitive antagonist activity at human EP2 receptor expressed in rat C6 cells assessed as parallel rightward shift in PGE2 concentration response curve treated for 10 mins prior to PGE2 challenge for 40 mins by TR-FRET assay. Type of data set: cell-based. On the technique in general: In TR-FRET formats the signal depends on donor and acceptor labels being close together.

Molecules are shown by their SMILES.

As a reminder, the CC50 is the concentration that lowers cell viability or growth by half. The term share remaining denotes the share of the starting amount still present when the sample was taken. Usually Kp stands for tissue or fluid exposure divided by exposure in the circulation. By Cmax is commonly meant the maximum level reached in the sampled fluid or tissue. Turning to `COc1cc(/C=C/C(=O)NCCn2c(C(F)(F)F)cc3ccccc32)cc(OC)c1OC`, the CC50 in the data set on C6 is 81000 nM. In addition, the share remaining at 1 h, 1 µM in data set [1] was found to be 2%. For the same compound, the concentration ratio (Kp) was 1.8 in data set [2] and 1.6 in data set [3]. The results for the Cmax in the data set “in vivo [4]” and in “in vivo [5]” were 115 ng/mL and 248 ng/mL, respectively.
The Kb is the affinity of an antagonist, worked out from how it opposes an agonist. As for `Cc1[nH]c2ccccc2c1CCNC(=O)/C=C/c1ccc(OCCO)c(OCCO)c1`, in data set [6], the Kb is 47.1 nM and the inhibition result was “Dose-dependent effect”.
On the same counts, the results for `Cc1cc2ccccc2n1CCNC(=O)/C=C/c1ccc(OCCO)c(OCCO)c1` are 14.8 nM and “Dose-dependent effect”.
